## Curated experimental data: melting point values

Source: data files of OPERA 2.9 (Mansouri et al.), github.com/kmansouri/OPERA.

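OPERA's authors assembled the values from existing databases and did not measure them anew. One number stands for a compound and property, with no spread given. Method, purity and exact conditions of the single measurements are not given. The measured form (salt, isomer or mixture) is not always the one drawn. Some upstream entries may be estimates or bounds without being marked so.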

Melting points are in °C.

compound	mp (°C)
CC1CCC2(CC1)NC(=O)N(N)C2=O (stereo unspecified)	119
Nc1cc(I)ccc1Cl	57
COc1ccc(C(=O)Oc2ccc(C=O)cc2OC)cc1	96.5
NC(=O)Cc1cccs1	146.5
Cc1ccc(S(=O)(=O)C(C)(C)C(=O)c2ccc(Sc3ccc(C(=O)c4ccccc4)cc3)cc2)cc1	115.3
CCN(CC)CCOC(=O)C1(c2ccccc2)CCCC1.Cl	146
COc1ccc(NCc2ccc(N(C)C)cc2)cc1	103
COc1ccc(-n2c(C)cc(C(=O)O)c2C)cc1	233
Cc1sc2nc(C)n(N)c(=O)c2c1C	205
C=C(C)C(=O)OCCCCCCCCCCCCCCCCCCCC	37.15
O=C(O)CCCN1C(=O)CSC1=S	125
O=C(O)c1cc2c(ccc3ccccc32)[nH]1	214
Cc1c(C=O)cc(C#N)n1C	91
CCn1c(=O)c2c(ncn2C)n(C)c1=O	165
O=C(O)c1sc2cc(Cl)cc(Cl)c2c1Cl	249
Cc1cc(C)c2[nH]c(=O)cc(C)c2c1	262
O=C(Nc1ccccc1)Nc1ccc(C(=O)O)cc1	261
Cc1c(C)n(-c2ccc(Cl)cc2)c2ncnc(N)c12	250
CCOC(=O)C(=O)CC(=O)c1ccc(Cl)cc1	63
Cc1cc(N)n(-c2cccc(C(F)(F)F)c2)n1	90
Cc1cc(C)n(N)c(=O)c1C#N	165
CC(C)(C)C(=O)N1CCNCC1	53
NN=C1c2ccccc2C(=O)C1C(=O)C(c1ccccc1)c1ccccc1 (stereo unspecified)	242
O=[N+]([O-])c1c(Cl)nc2ccccn12	171
COc1cccc(-n2cc[nH]c2=S)c1	150
O=C(CCl)N1CCSc2ccccc21	54
O=C(O)c1ccccc1-n1cnnn1	192
O=C1C=CC(=O)N1c1ccc2ccccc2c1	122
Clc1ccc(OCCCBr)cc1	31.5
Nc1cc(-c2cccc([N+](=O)[O-])c2)[nH]n1	138
CC(C)c1ccc(C(=O)O)c(C(C)C)c1	100
O=C(O)c1c[nH]cc1-c1ccccc1	213
O=Cc1ccc(-c2ccc([N+](=O)[O-])cc2Cl)o1	137
Cc1cc(CC(=O)O)c(C)n1-c1ccc(Cl)cc1	119
NC(=O)c1ccc(=O)[nH]c1	317
Nc1ccc(-c2ccccc2)nn1	146
CC(Cl)C(=O)c1c[nH]c2ccccc12 (stereo unspecified)	191
CCCNC(=O)CC#N	54

Extract of 6 entries:

compound	mp (°C)
Cc1c(C=O)cc(C#N)n1C	91
Cc1ccc(S(=O)(=O)C(C)(C)C(=O)c2ccc(Sc3ccc(C(=O)c4ccccc4)cc3)cc2)cc1	115.3
CCn1c(=O)c2c(ncn2C)n(C)c1=O	165
C=C(C)C(=O)OCCCCCCCCCCCCCCCCCCCC	37.15
Cc1sc2nc(C)n(N)c(=O)c2c1C	205
O=C(O)CCCN1C(=O)CSC1=S	125